# Measured vapor pressure values of organic chemicals

Data: OPERA 2.9 data sets, kmansouri/OPERA on GitHub.

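The OPERA project collected these measurements from public sources as training and test data for property models. One number stands for a compound and property, with no spread given. Method, purity and exact conditions of the single measurements are not given. A value may pool stereoisomers or salt forms, and the file does not say which form was measured. Some upstream entries may be estimates or bounds without being marked so.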

Vapor pressure is log10 of mmHg; the set covers 15 to 30 °C, mostly 20 to 25 °C.

SMILES,log vapor pressure (log10 mmHg)
NC1CCCc2ccccc21 (stereo not given),-1.663
CO[Si](C)(C)CCCN,-0.365
C=CC(O)CCCCC (stereo not given),-0.648
CC(C)(C)C1=CC(=Cc2ccccc2)C=C(C(C)(C)C)C1=O,-4.28
NC(CC(=O)O)C(=O)[O-].[Na+] (stereo not given),-5.398
Clc1cccc(-c2cc(Cl)cc(Cl)c2)c1,-3.975
CN(C)C(=N)N(C)C,0.402
CC(C)(C)c1cc(CCC(=O)NCCCCCCNC(=O)CCc2cc(C(C)(C)C)c(O)c(C(C)(C)C)c2)cc(C(C)(C)C)c1O,-13
Clc1cc(-c2c(Cl)cc(Cl)c(Cl)c2Cl)c(Cl)c(Cl)c1Cl,-5.435
OCCSCC(O)CSCCO,-4.852
C=C(Cl)C(=C)Cl,1.952
COC(=O)C=C(C)C,1.176
CC(C)(C)c1cc(CCC(=O)OCCSCCOC(=O)CCc2cc(C(C)(C)C)c(O)c(C(C)(C)C)c2)cc(C(C)(C)C)c1O,-11
CCN(CC)CCOC(=O)CCCCC(=O)OCCN(CC)CC,-5.587
Clc1cc(Cl)cc(-c2ccc(Cl)c(Cl)c2Cl)c1,-5.115
C=C1CC2C(CCC3(C)C2CCC3(OC(C)=O)C(C)=O)C2(C)CCC(=O)C=C12 (stereo not given),-11.87
N#CI,0
COC(=O)C1CC(=O)C(C(=O)OC)CC1=O (stereo not given),-5.709
CC1=CC(=O)c2ccccc2C1=O,-3.283
C=CCCCCCCCCCCCCCCCCCCCCCCCCCCCC,-7.152
C[SiH](C)O[Si](C)(C)O[Si](C)(C)O[Si](C)(C)O[SiH](C)C,-0.244
Clc1cc(Cl)cc(-c2ccccc2Cl)c1,-3.565
CC1COc2c(N3CCN(C)CC3)c(F)cc3c(=O)c(C(=O)O)cn1c23 (stereo not given),-4.81
CC(C)C1=CC2=CC[C@@H]3[C@](C)(CCC[C@@]3(C)C(=O)O)[C@H]2CC1,-6.496
Clc1cc(Cl)c2cc(Cl)ccc2c1,-3.065
CC(=O)c1cccc(N)c1,-2.005
CC(C)(c1ccc(Oc2ccc(N)cc2)cc1)c1ccc(Oc2ccc(N)cc2)cc1,-9.772
CCCCOC(=O)CO,0
CCCCOCCO[Si](OCCOCCCC)(OCCOCCCC)OCCOCCCC,-2.87
Clc1cc(Cl)cc(-c2c(Cl)c(Cl)cc(Cl)c2Cl)c1,-5.015
COC(=O)C(Cl)Cc1ccc(Cl)cc1 (stereo not given),-2.156
COC(C)CCO (stereo not given),-0.75
CC(C)N(CCN)C(C)C,-0.029
CC(C)(CN)CN,0.235
CC(O)CN(CCCN(C)C)CCCN(C)C (stereo not given),-1.894
C=C(C)C(=O)OCCN(CC)CC,-0.989
O=C([O-])CN(CCO)CCO.[Na+],-3.655
CC1OC1C (stereo not given),2.267
O=C(O)c1ccncc1,-7.629
Clc1cc(Cl)cc(-c2c(Cl)cccc2Cl)c1,-3.975
C[Si](C)(Cl)CCCCl,-0.394
CCCCCC[Si](OC)(OC)OC,0.701
CC1(C)CCC[C@]2(C)[C@H]3CCO[C@]3(C)CC[C@@H]12,-3.305
Clc1cccc(-c2c(Cl)cc(Cl)c(Cl)c2Cl)c1,-4.325
CC(C)CCCCCCCOC(=O)CC(C)CC(C)(C)C (stereo not given),-3.813
CCN(CC)CCN,0.602

Repeated from above, the 5 entries with the highest log vapor pressure:

SMILES	log vapor pressure (log10 mmHg)
CC1OC1C (stereo not given)	2.267
C=C(Cl)C(=C)Cl	1.952
COC(=O)C=C(C)C	1.176
CCCCCC[Si](OC)(OC)OC	0.701
CCN(CC)CCN	0.602